The list shows a part of the results, in another mix than the full data.
The molecules below were run against Tumor necrosis factor receptor superfamily member 10B (Homo sapiens) (UniProt O14763) (assay: viability loss of caspase-8 NB7 cells with TRAIL – with/without TRAIL, luminescence panel, confirmation (AID 651596)). Conditions: NB7 neuroblastoma + caspase-8, TRAIL sensitization, NB7 Caspase-8, mean of runs, at 10 µM, stronger effect = higher value.

Sequences of proteins named here, by UniProt entry; tags and fusion partners are left off.
UniProt O14763, whole entry, looked up: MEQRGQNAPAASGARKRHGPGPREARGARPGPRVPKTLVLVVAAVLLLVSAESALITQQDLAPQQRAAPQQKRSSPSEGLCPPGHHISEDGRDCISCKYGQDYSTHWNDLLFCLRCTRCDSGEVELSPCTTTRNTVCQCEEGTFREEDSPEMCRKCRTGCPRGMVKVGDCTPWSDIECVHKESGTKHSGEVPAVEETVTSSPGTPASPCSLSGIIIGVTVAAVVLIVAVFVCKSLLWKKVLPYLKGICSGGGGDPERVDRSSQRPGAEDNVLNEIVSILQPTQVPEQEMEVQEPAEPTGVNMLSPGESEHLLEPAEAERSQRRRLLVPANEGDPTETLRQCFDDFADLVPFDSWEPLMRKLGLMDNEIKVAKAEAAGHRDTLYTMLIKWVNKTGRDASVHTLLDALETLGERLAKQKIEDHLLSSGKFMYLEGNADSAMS

How did the activity turn out when CCCCCCCCCCCCCCCC1C[N+](C)(C)CCOP(C)(=O)O1 (configuration not stated) was run?
The activity was 90%.

O=[N+]([O-])c1cc([N+](=O)[O-])c(Nc2ccccn2)c([N+](=O)[O-])c1 was tested. Which activity did it give?
Its activity is 55.4%.

Source: PubChem BioAssay AID651596 (Sanford-Burnham Center for Chemical Genomics, 2012)
